{"source": "patent US9828333B2", "about": "“Compounds for the treatment of influenza” (CHRISTIAN-ALBRECHTS-UNIVERSITAT ZU KIEL, priority 2011, dated 2017)", "origin": "cited, not measured here", "conditions": "in vivo; cited from earlier work", "data": [{"molecule": "CC(=O)N[C@H]1[C@H]([C@H](O)[C@H](O)CO)OC(C(=O)O)=C[C@@H]1N=C(N)N", "note": "[Zanamivir]", "values": [{"measurement": "bioavailability after oral administration", "value": 2, "unit": "%"}]}]}
